Patent US10220090B2, “BCMA Antigen binding proteins” (Amgen Inc., priority 2012, dated 2019)

Tests used:
H929 cells = experiment: Internalization assay (ArrayScan spot count) in H929 cells; type: cell-based, human
[1] = Differential Scanning Calorimetry (DSC) thermostability; type: physicochemical; settings: Fab region
Description: Differential Scanning calorimetry (DSC) was used to compare the thermostability of parent and engineered antibodies. DSC is a thermodynamical tool for direct assessment of the heat energy uptake, which occurs in a sample within a regulated increase or decrease in temperature. DSC is commonly employed to assess the thermal and conformational stability of a protein. The melting temperature of a protein, or of individual domains, can be obtained from the DSC profile, and if the reaction is reversible the thermodynamic parameters of the unfolding can be determined. A protein is considered more thermostable when the Tm (transition temperature) is higher. When thermostability data are compared to other bioanalytical methods, like size exclusion chromatography (SEC), it has been observed that a correlation between greater thermostability (higher Tm) and decreased aggregation. Antibodies with a higher Tm and decreased aggregation formation have the potential for improved long-term stability thus potentially making better biotherapeutics.
DSC was carried out using a MicroCal™ VP-Capillary DSC system (GE Healthcare, Piscataway, N.J.) equipped with an auto-sampler. The temperature differences between the reference and sample cells are continuously measured, and calibrated to power units. For example, the full-length antibodies shown in TABLE 10 were diluted to 0.5 mg/mL in a buffered solution. The solution reference and protein samples were measured in a 135 μL cell from 20 to 110° C. at a heating rate of 60° C./hour. The pre-scan was set at 15 minutes while the filtering period was 10 seconds. Signal from the blank buffer solution was used for baseline subtraction. The data analysis was performed using MicroCal™ Origin 7 software. Heat capacity during protein melting was calculated by normalizing over protein concentration.

human BCMA = target: T1, human BCMA (Homo sapiens, UniProt Q02223, N81S); experiment: FACS binding on cells transiently transfected to express full length BCMA
T1 construct: expressed in transfected cells
T1 sequence (Q02223 1-184 N81S): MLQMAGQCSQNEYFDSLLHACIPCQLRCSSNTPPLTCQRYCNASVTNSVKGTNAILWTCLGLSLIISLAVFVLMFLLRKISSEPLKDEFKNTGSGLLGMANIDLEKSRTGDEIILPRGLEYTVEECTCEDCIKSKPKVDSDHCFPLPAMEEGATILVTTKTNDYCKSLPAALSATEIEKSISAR
Protocol: An important criterion is exquisite selectivity for wild-type human BCMA expressed on the surface of cells. FACS binding on cells transiently transfected to express full length BCMA, TACI, or BAFF-R was performed using standard techniques. Approximately 40×10^6 of the transiently-transfected target cells were resuspended in a staining solution (2% goat serum, 1% rabbit serum, 0.02% azide in PBS) and aliquoted into round-bottom, 96-well plate (Corning Incorp., Acton, Mass.) as per the experiment design. The cells were incubated at 4 degrees celsius for 30 minutes to block non-specific sites. The antibodies were titrated into the staining solution. The cells were rinsed in a rinse solution (PBS+0.02% azide) by resuspending the cells in 200 ul/well. The cells were centrifuged at 1500 rpm at 4 degrees celsius for 7 minutes. The rinse solution was removed and the rinse step was repeated. The cells were resuspended in the appropriate antibody solution (see the matrix in TABLE 4) at 30 ul/well and incubated at 4 degrees celsius for 30 minutes. […] For the mouse IgG1 negative control and the two mouse antibodies (1.183 and 1.288), the secondary reagent was an anti-mouse IgG-PE conjugate (BD Pharmingen Cat. 550589). The cells/antibodies were rinsed as described above to remove excess/unbound antibody. […] Samples were read at 532 nm wavelength on FACS. […]

B1: Ab-5: parental fully human anti-huBCMA mAb 2A1, Vh SEQ ID NO:214, Vl 248; heavy chain SEQ ID NO:287, light chain 288 (antibody)
heavy: EVQLVESGGGLVKPGRSLRLSCTASGFTFGDYALSWFRQAPGKGLEWVGVSRSKAYGGTTDYAASVKGRFTISRDDSKSFAYLQMNSLKTEDTAVYYCCSSGYSSGWTPFDYWGQGTLVTVSSASTKGPSVFPLAPSSKSTSGGTAALGCLVKDYFPEPVTVSWNSGALTSGVHTFPAVLQSSGLYSLSSVVTVPSSSLGTQTYICNVNHKPSNTKVDKKV[omitted - human IgG1 Fc]
light: QSVLTQPPSASGTPGQRVTISCSGSSSNIGSNTVNWYQQLPGTAPKLLIFNYHQRPSGVPDRFSGSKSGSSASLAISGLQSEDEADYYCAAWDDSLNGWVFGGGTELTVLGQPKAAPSVTLFPPSSEELQANKATLVCLISDFYPGAVTVAWKADSSPVKAGVETTTPSKQSNNKYAASSYLSLTPEQWKSHRSYSCQVTHEGSTVEKTVAPTECS
For B1, the “internalization following binding to BCMA on H929 cells” value (H929 cells) was “readily internalized”, the “Tm Fab” value [1] was 66 °C and the “BCMA (FACS binding)” value (human BCMA) was “+ (A sample was considered positive for binding if the MFI was two times the negative control value)”.
